Columns and labels:
[1] = target: 5-hydroxytryptamine receptor 2A (Rattus norvegicus, UniProt P14842)
[2] = target: 5-hydroxytryptamine receptor 2A (Homo sapiens, UniProt P28223); assay: Inhibition of [3H]ketanserin binding to recombinant human 5-hydroxytryptamine 2A receptor

| Compound | Ki [1] [nM] | Ki [2] [nM] |
| --- | --- | --- |
| Cc1ccc2n1Cc1ccccc1C=C2N1CCN(C)CC1 | 4.99 |  |
| CN1CCN(C2=Cc3cc(Cl)ccc3Cn3cccc32)CC1 | 1.35 |  |
| CN1CCN(C2=Cn3cccc3Sc3sccc32)CC1 | 2.15 |  |
| CN1CCN(C2=Cc3ccccc3Cn3cccc32)CC1 |  | 5.4 |

— ChEMBL document CHEMBL1144408, “Novel atypical antipsychotic agents: rational design, an efficient palladium-catalyzed route, and pharmacological studies” (J Med Chem, 2005)
